## Measured affinities in a library of Ab-14 heavy chain variants

All variants were tested on one target, the spike HR2 peptide PDVDLGDISGINAS (SARS-CoV-2).

Parent: Ab-14, a human scFv built as VH, the linker GGGGSGGGGSGGGGS, VL. Only the CDRs of the heavy chain vary.
VH: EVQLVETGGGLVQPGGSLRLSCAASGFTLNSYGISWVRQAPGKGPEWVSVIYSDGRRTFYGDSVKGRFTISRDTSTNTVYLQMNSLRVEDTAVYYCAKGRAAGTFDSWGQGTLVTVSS
VL: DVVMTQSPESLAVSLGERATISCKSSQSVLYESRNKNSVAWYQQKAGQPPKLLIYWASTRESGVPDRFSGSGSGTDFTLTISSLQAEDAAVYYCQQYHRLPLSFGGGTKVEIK

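This is the validation round: designs drawn from the data on random variants, tested in the same kind of assay. Several design methods are mixed in this list. Affinity was read by AlphaSeq, a pooled yeast mating assay with surface-displayed partners. Pairs that bind mate more often; barcode pairs of the diploids are counted by sequencing. A regression on co-assayed BCL2-family reference pairs converts the normalised counts of each replicate to an apparent Kd. There are six technical replicates.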

The parent's heavy chain CDRs are GFTLNSYGIS, VIYSDGRRTFYGDSVK, GRAAGTFDS; each variant's own CDRs replace them letter for letter. This list holds designs with more than six substitutions. The Kd shown is the geometric mean over detected replicates; a lower Kd is a better binder. A pair that was not seen in any replicate is written "no signal"; this usually means weak binding, but a binder can also be missed. In the paper, a design with two or fewer of six values counts as a poor binder. Values of this round are not directly comparable with the first-round values of the same sequences. Nonspecific signal, from three strains lacking the peptide, appeared in 1% of pairings of all heavy chain designs, centred on 120 nM (5% of these signals below 7.0 nM); values are not corrected for it. For each scFv, signals with the empty controls are counted beside the result.

The variant GFDLNEYGIS | VIYADGRRTFYADSVK | GTLAGTFDA gave 36 pM (6 of 6 replicates; controls 0 of 18).
The variant GFDISEYGIS | VIYADGKKTQFVNTVK | GELGGTFNV gave 170 nM (4 of 6 replicates; controls 0 of 18).
The variant GFDLNEYGIS | VIYADGRRTFYTDSVK | GGNAGTFDI gave 190 pM (6 of 6 replicates; controls 1 of 18).
The variant GFNLDEYGIS | VIYADGIREHYVDDVK | GKHGGGKLD gave no signal (0 of 6 replicates; controls 2 of 18).
The variant GFQLDEYGIS | VIYADGSRTAYADSVK | GKYKFSLVV gave no signal (0 of 6 replicates; controls 0 of 18).
The variant GFDLNEYGIS | VIYADGMRTAYSDKVK | GENAGTFDL gave 480 pM (6 of 6 replicates; controls 0 of 18).
The variant GFDLNEYGIS | VIYADGMRTFYADDVK | GNQAGTFDL gave 530 pM (6 of 6 replicates; controls 0 of 18).
The variant GFDLNEYGVS | VIYADGIRRAYAANFK | GVNAGGLDI gave no signal (0 of 6 replicates; controls 0 of 18).
The variant GFDLNEYGIS | VIYADGQRTAYADNVK | GNVAGTFDT gave 700 pM (6 of 6 replicates; controls 0 of 18).
The variant GFDLAEYGVS | VIYADGKRTEYSDHVK | GENGGFFDL gave 48 nM (1 of 6 replicates; controls 1 of 18).
The variant GFDLNEYGIS | VIYADGRRTFYADSVK | GQEAGTFDV gave 370 pM (6 of 6 replicates; controls 0 of 18).
The variant GFDLNEYGIS | VIYADGRRTQYIDSVK | GNNAGTFDS gave 420 pM (6 of 6 replicates; controls 0 of 18).
The variant EFDLNNYGIS | VIYADGLRTAYVTNFK | GINAGTFTS gave no signal (0 of 6 replicates; controls 0 of 18).
The variant GFDLNEYGIS | VIYADGQRTYYADSVK | GENAGTFDM gave 1.1 nM (6 of 6 replicates; controls 0 of 18).
The variant GFDLNEYGIS | VIYADGSRTAYADSVK | GNNAGTFDT gave 1.1 nM (6 of 6 replicates; controls 0 of 18).
The variant GFDLDEYGIS | VIYADGMRTAYTDSVK | GNQAGTFDT gave 610 pM (6 of 6 replicates; controls 1 of 18).
The variant GFDLNEYGIS | VIYADGRRTAYTDSVK | GDAAGTFDL gave 1.1 nM (6 of 6 replicates; controls 0 of 18).
The variant GFDLDEYGIS | VIYADGRRTAYADSVK | GEAAGTFDV gave 620 pM (6 of 6 replicates; controls 0 of 18).
The variant GKDINEYGVS | VIYADGKRNAYINSVK | GKNAGAFVD gave 5.5 nM (1 of 6 replicates; controls 0 of 18).
The variant GFDLNEYGIS | VIYADGMRTFYSDSVK | GNVGGSFDV gave 850 pM (6 of 6 replicates; controls 1 of 18).
The variant GFDLNEYGIS | VIYADGMRTAYADNVK | GQNAGTFDV gave 150 pM (6 of 6 replicates; controls 0 of 18).
The variant GFNLDEFGIS | VIYADGIRTFYLDSFK | GENVNAVDT gave no signal (0 of 6 replicates; controls 0 of 18).
The variant GKNIDEYGVS | VIYADGKRTAYANNFK | GGNAGFFKS gave no signal (0 of 6 replicates; controls 1 of 18).
The variant GMDLDEYGIS | VIYADGHRRYYAANVK | GVNIDGFDL gave 2.6 µM (1 of 6 replicates; controls 0 of 18).
The variant GFDLNSYGIS | VIYSDGRRTAYEDSVK | LTLMGTFDS gave no signal (0 of 6 replicates; controls 0 of 18).
The variant GFVLQEYGIS | VIYADGMRTAYAEDFK | GFTGGNLHI gave no signal (0 of 6 replicates; controls 0 of 18).
The variant GFDLNEYGIS | VIYADGMRTFYDDSVK | GQTAGTFDF gave no signal (0 of 6 replicates; controls 0 of 18).
The variant GFTLHSLGIS | VIAADGRWTFYGDSVK | GRAAGTNKS gave no signal (0 of 6 replicates; controls 0 of 18).
The variant GFDLMEYGIS | VIYADGVRTAYLDQVK | GESGGAYYT gave no signal (0 of 6 replicates; controls 0 of 18).
The variant GFDLNEYGIS | VIYADGRRTFYTDDVK | GQNAGTFDV gave 71 pM (6 of 6 replicates; controls 0 of 18).

Extract of 5 entries:

GFTLHSLGIS | VIAADGRWTFYGDSVK | GRAAGTNKS: no signal (0 of 6 replicates; controls 0 of 18).
GFDLNEYGIS | VIYADGRRTFYTDSVK | GGNAGTFDI: 190 pM (6 of 6 replicates; controls 1 of 18).
GFDLNEYGIS | VIYADGMRTFYDDSVK | GQTAGTFDF: no signal (0 of 6 replicates; controls 0 of 18).
GFDLNEYGIS | VIYADGMRTAYSDKVK | GENAGTFDL: 480 pM (6 of 6 replicates; controls 0 of 18).
GFDLNEYGIS | VIYADGSRTAYADSVK | GNNAGTFDT: 1.1 nM (6 of 6 replicates; controls 0 of 18).

Values reported by Li et al. 2023, doi:10.1038/s41467-023-39022-2 (FLAb copy).